Measurements taken from paper PMC13086964, “USP7 deubiquitinase stabilizes FAN1 to support DNA crosslink repair and suppress CAG repeat expansion” (Nature Communications, 2026).

Experiments:
FAN1-NTD = assay: GST pull-down; type: binding, human; conditions: GST-FAN1-NTD (aa 1-372), 0.5 µg USP7, 1 h at 4 °C
Method: For GST pull-down assays, GST fusion plasmids were transformed in BL21 RIL (CodonPlus) E. coli (Stratagene) and recombinant proteins were expressed by incubating the bacteria for 24 h at 16 °C after the addition of 100 μM IPTG. After centrifugation, the bacterial pellet was resuspended in cold PBS, supplemented with 1% Triton X-100 and protease inhibitors (1 mM PMSF, 1 mM benzamidine, and cOmplete™ Protease Inhibitor Cocktail). After sonication and centrifugation, GST-tagged FAN1 was purified from soluble extracts using Glutathione Sepharose 4 Fast Flow beads (GE Healthcare). GST fusion proteins bound to glutathione beads were mixed with 0.5 µg of human recombinant USP7 (R&D Systems) and incubated for 1 h at 4 °C in 1 ml of PBS-1% Triton. Beads were then washed three times with NTEN300 buffer (0.5% NP-40, 0.1 mM EDTA, 20 mM Tris-HCl pH 7.4 and 300 mM NaCl) and once with TEN100 (20 mM Tris-HCl pH 7.4, 0.1 mM EDTA and 100 mM NaCl) buffer. Recovered complexes were boiled in SDS sample buffer and analysed by SDS–PAGE followed by immunoblotting.

[1] = test system: polyubiquitinated GFP-FAN1; assay: in vitro deubiquitination assay; type: biochemical, human; conditions: immune-purified from HEK293T, DUB buffer 50 mM Tris-HCl pH 7.5, 2 h at 37 °C
Method: HEK293T cells were co-transfected with plasmids encoding HA-ubiquitin wt and GFP-FAN1 wt, respectively. 24 h after transfection, cells were washed twice with cold PBS and directly lysed in 1 ml of RIPA buffer (50 mM Tris-HCl pH 7.5, 150 mM NaCl, 1% IGEPAL, 0.5% sodium deoxycholate, 0.1% SDS) supplemented with 2 mM MgCl2, cOmplete inhibitor cocktail (Roche), phosphoSTOP (Roche), 25U/ml benzonase, 0.1 mM PMSF and 20 mM N-ethylmaleimide (NEM). Lysates were incubated for 5 min at room temperature and then centrifuged at 15000 g for 15 min. Between 1 and 3 mg of lysates were incubated with ChromoTek GFP-Trap® Agarose resin (Proteintech) for 2 h or overnight at 4 °C. Beads were then collected by centrifugation, washed once with RIPA buffer, two times with NTEN 500 (0.5% NP-40, 0.1 mM EDTA, 20 mM Tris-HCl pH 7.4 and 500 mM NaCl), once with TEN300 and four times with TEN100 buffer. Beads were then equilibrated in DUB buffer (50 mM Tris-HCl, pH 7.5, 50 mM NaCl, 1 mM MgCl2, 1 mM DTT), equally distributed in reaction tubes and incubated with purified recombinant His-USP7 for 2 h at 37 °C at low rpm. The unbound fraction (supernatant) was separated from the affinity resin following centrifugation, and the reaction was blocked by the addition of 5x SDS sample buffer. Samples were boiled and analysed by SDS-PAGE followed by immunoblotting.

Substance: recombinant USP7: human recombinant full-length USP7 (R&D Systems # E-519)
- physical interaction with FAN1-NTD (FAN1-NTD): confirmed a physical interaction
- deubiquitination of polyubiquitinated GFP-FAN1 [1]: deubiquitinates
